Consider four molecules from ChEMBL document CHEMBL3769324, “Acetophenone derivatives: novel and potent small molecule inhibitors of monoamine oxidase B” (Medchemcomm, 2015).

Sequences of proteins named here, by UniProt entry; tags and fusion partners are left off.
UniProt P27338, whole entry: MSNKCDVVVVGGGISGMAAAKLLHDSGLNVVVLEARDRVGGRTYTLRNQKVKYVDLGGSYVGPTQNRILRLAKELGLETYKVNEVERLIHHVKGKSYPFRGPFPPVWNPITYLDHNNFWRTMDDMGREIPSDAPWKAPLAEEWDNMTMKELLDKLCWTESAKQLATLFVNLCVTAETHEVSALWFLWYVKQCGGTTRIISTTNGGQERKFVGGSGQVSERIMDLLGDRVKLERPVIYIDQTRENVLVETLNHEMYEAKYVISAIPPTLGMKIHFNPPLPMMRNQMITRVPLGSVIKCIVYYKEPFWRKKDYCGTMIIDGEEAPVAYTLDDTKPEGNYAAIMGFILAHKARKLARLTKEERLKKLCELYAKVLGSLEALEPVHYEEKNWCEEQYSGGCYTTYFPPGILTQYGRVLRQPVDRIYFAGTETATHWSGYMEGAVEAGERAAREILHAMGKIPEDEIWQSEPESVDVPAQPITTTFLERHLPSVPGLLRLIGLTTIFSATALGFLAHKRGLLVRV

The test has as its target Amine oxidase [flavin-containing] B (Homo sapiens, UniProt P27338). Description: Inhibition of human MAOB using p-tyramine as substrate after 15 mins by Amplex Red MAO assay.

One may read the IC50 as the concentration needed to halve the response being measured. In the case of `CC(=O)c1ccc(OCc2ccc(F)cc2)cc1`, half-maximal inhibition (IC50) was put at 12.9 nM.

As to `CC(=O)c1cccc(OCc2ccc(Br)cc2)c1`, 16.5 nM corresponded to half-maximal inhibition (IC50). `CC(=O)c1cccc(OCc2ccc(Cl)cc2)c1` yielded an IC50 of 11.7 nM.

As to `CC(=O)c1ccc(OCc2cccc(Cl)c2)cc1`, it took 21.5 nM to reach half-maximal inhibition (IC50).
